One compound from patent US7625889B2, “Substituted bis aryl and heteroaryl compounds as selective 5HT2A antagonists” (Aventis Pharmaceuticals Inc., priority 2005, dated 2009) can be followed below.

Chains of the proteins cited; added tags and fusions are not shown.
UniProt P28223, whole entry: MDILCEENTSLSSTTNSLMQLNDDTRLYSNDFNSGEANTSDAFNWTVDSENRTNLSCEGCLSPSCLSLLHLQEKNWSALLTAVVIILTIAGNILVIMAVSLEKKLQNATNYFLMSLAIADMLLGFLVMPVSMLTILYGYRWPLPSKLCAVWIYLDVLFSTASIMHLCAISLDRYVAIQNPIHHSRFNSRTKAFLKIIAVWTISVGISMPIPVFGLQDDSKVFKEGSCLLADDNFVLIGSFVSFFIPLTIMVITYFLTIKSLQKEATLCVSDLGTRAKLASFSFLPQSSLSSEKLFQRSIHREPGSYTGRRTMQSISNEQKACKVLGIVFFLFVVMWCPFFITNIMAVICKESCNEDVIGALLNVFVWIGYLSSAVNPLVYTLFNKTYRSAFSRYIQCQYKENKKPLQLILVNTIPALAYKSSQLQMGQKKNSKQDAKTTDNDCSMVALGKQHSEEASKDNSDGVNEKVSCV

The assay addresses human 5HT2A receptor (Homo sapiens, UniProt P28223). The assay can be described thus: Receptor Binding Assay, 5HT2A ([3H]N-methyl spiperone). Particulars: read-out: 5-HT2A Ki; BHK cells expressing human 5HT2A receptor, 2.5 nM [3H]N-methyl spiperone, 37° C.; tested form: TFA. How it is done: Cell Culture: BHK cells stably expressing the human 5HT2A receptor were maintained in Dulbecco's Modified Eagle's Medium supplemented with […] Geneticin, 1% Sodium Pyruvate, 1% Pen-Strep and 10% Fetal Calf Serum, and treated with 5 mM sodium butyrate for 24 h to increase receptor expression before harvesting. Cells were harvested by mechanical scraping, washed with Phosphate Buffered Saline, and stored at −80° C. in 10% DMSO in 1 mg/mil aliquots until used. Protein determination was made according to Lowry.
Receptor Binding Assays: The 5HT2A and D2L assays were conducted at 37° C. in a Tris buffer containing salts (50 mM Tris Buffer, pH 7.7; 120 mM NaCl; 5 mM KCl; 2 mM CaCl2; 1 mM MgCl2). Cell membranes (previously prepared and frozen) were rapidly thawed. Membranes were diluted to an appropriate concentration (to produce 100 μg protein/assay point for 5HT2A, and 58 μg protein/assay point for D2L) in Tris buffer and homogenized. Assays were conducted on 96-well plates, using 2.5 and 1 nM [^3H]N-methyl spiperone as radioligand for 5HT2A and D2L assays, respectively. […]
Assays were terminated by rapid filtration through Millipore MAFB or MAFC (5HT2C) filter plates (presoaked in 50 mM Tris HCl, pH 7.7, with 0.1% Brij) using a Millipore Cell Harvester. […] 50 μl of Microscint scintillation cocktail were added and the plates were counted in a Packard Topcount scintillation counter. […]

One may read the Ki as the dissociation constant of the complex between target and ligand, obtained from inhibition or displacement. Regarding `CCN1CCC[C@@H]1CN(Cc1ccc(F)cc1)Cc1cc(-c2ccc3[nH]c(=O)oc3c2)ccc1F`, the Ki is 0.49 nM.
